From patent US20260166045A1, “COMBINATION THERAPY COMPRISING GSPT1-DIRECTED MOLECULAR GLUE DEGRADERS AND PI3K/AKT/mTOR PATHWAY INHIBITORS” (Monte Rosa Therapeutics, Inc., priority 2022, published 2026)

Legend:
Assay in all cases: CTG viability, 11x11 concentration matrix, Loewe synergy (NSCLC)
Details in all cases: inhibitor combined with compound 1-1 (0.1 nM to 3.16 uM), 11x11 matrix, 72 hours
NCI-H1770 cell line = tested on: NCI-H1770 cell line
NCI-H2106 cell line = tested on: NCI-H2106 cell line
ABC-1 cell line = tested on: ABC-1 cell line
NCI-H441 cell line = tested on: NCI-H441 cell line
EBC-1 cell line = tested on: EBC-1 cell line
NCI-H2023 cell line = tested on: NCI-H2023 cell line

Row | Compound | Mean Loewe synergy score, NCI-H1770 (NCI-H1770 cell line) | Mean Loewe synergy score, NCI-H2106 (NCI-H2106 cell line) | Mean Loewe synergy score, ABC1 (ABC-1 cell line) | Mean Loewe synergy score, NCI-H441 (NCI-H441 cell line) | Mean Loewe synergy score, EBC1 (EBC-1 cell line) | Mean Loewe synergy score, NCI-H2023 (NCI-H2023 cell line)
1 | Cc1nc(NC(=O)N2CCC[C@H]2C(N)=O)sc1-c1ccnc(C(C)(C)C(F)(F)F)c1 [Alpelisib, (2S)-1-N-[4-methyl-5-[2-(1,1,1-trifluoro-2-methylpropan-2-yl)pyridin-4-yl]-1,3-thiazol-2-yl]pyrrolidine-1,2-dicarboxamide] | 1.7 | −0.51 | 4.95 | 5.23 | 0.38 | 1.1
2 | NC1(C(=O)N[C@@H](CCO)c2ccc(Cl)cc2)CCN(c2ncnc3[nH]ccc23)CC1 [Capivasertib, 4-amino-N-[(1S)-1-(4-chlorophenyl)-3-hydroxypropyl]-1-(7H-pyrrolo[2,3-d]pyrimidin-4-yl)piperidine-4-carboxamide] | 3.31 | 3.77 | 5.4 | 4.4 | 4.03 | 3.86
3 | Nc1cc(C(F)(F)F)c(-c2cc(N3CCOCC3)nc(N3CCOCC3)n2)cn1 [buparlisib, 5-(2,6-dimorpholin-4-ylpyrimidin-4-yl)-4-(trifluoromethyl)pyridin-2-amine] | 0.21 | −0.48 | 1.14 | 0.24 | 3.27 | 2.5
